# The list shows a part of the results, in another mix than the full data. The source made the active and inactive calls. Cut-off read from the data, not from the text of the source: active = inhibition above about 21%; inactive = the rest.
# By UniProt entry, the sequences of proteins in these tests, tags left out. Where a name states a change or a piece, a line headed by the entry shows the natural chain unless it says otherwise.
# UniProt Q96T88: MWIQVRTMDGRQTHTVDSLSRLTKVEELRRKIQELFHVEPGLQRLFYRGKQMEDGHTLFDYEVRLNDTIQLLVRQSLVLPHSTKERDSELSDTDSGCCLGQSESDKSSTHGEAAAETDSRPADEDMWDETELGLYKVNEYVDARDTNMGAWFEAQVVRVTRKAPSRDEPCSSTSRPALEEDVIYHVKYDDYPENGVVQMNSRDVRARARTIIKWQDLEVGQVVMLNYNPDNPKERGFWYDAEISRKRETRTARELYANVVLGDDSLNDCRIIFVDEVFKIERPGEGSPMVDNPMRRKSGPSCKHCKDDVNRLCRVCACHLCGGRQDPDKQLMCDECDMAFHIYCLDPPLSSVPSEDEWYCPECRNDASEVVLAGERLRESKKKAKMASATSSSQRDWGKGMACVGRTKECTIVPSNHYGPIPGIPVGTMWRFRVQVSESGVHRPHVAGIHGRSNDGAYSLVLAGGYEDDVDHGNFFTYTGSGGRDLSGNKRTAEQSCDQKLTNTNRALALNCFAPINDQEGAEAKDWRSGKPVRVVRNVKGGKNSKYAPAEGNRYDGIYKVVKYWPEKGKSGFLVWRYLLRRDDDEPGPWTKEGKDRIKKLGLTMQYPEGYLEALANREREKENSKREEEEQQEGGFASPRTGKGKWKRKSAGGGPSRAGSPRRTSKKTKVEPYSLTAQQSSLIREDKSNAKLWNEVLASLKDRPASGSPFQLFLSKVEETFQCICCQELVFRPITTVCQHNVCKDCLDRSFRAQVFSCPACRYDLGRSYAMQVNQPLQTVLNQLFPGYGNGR
# Molecular target: E3 ubiquitin-protein ligase UHRF1 (Homo sapiens) (UniProt Q96T88)
# Assay: UHRF1 methylated DNA binding inhibitors, primary screen, counter-screen for MBD2 inhibitor project, biochemical, TR-FRET, human UHRF1, single concentration (AID 687016);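 note: UHRF1 SRA domain binding a hemimethylated CpG hairpin DNA probe; 0% = median of test compound wells and 100% = reference inhibitor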
# Settings: UHRF1 binding to methylated oligo, at 4.4 µM, stronger effect = higher value
row,Structure (SMILES),inhibition
1,O=[As](O)(c1ccccc1)c1ccc(O)cc1,inactive: 1.93%
2,O=[N+]([O-])c1ncn(CCn2cnc([N+](=O)[O-])n2)n1,inactive: -0.56%
3,CC(=O)NC(SC(=S)N(C)C)C(Cl)(Cl)Cl (stereo not given),inactive: 0.54%
4,O=C(OC1CN2CCC1CC2)c1cccc(Cl)c1 (stereo not given),inactive: 1.74%
5,Nc1ccc([As](=O)(O)c2ccc([N+](=O)[O-])cc2)cc1,inactive: -2.33%
6,C(Cc1nn[nH]n1)Cc1nn[nH]n1,inactive: -0.77%
7,C/C(N)=N\P(=O)(OCc1ccccc1)OCc1ccccc1,inactive: -1.82%
8,CN(C)C1(CNC(=O)c2ccc(Cl)c(S(N)(=O)=O)c2)CCCCC1,inactive: -0.53%
9,O=P(Nc1ccccn1)(c1ccc(Br)cc1)c1ccc(Br)cc1,inactive: -0.06%
10,Nc1ccc(CCCCOc2ccccc2)cc1,inactive: 1.09%
11,COc1ccc(N)c([N+](=O)[O-])c1[N+](=O)[O-],inactive: -5.1%
12,C[C@H]1OP(=O)(Oc2ccccc2)[C@H](O)[C@H](O)[C@H]1N=[N+]=[N-] (stereo not given in full),inactive: -2%
13,O=P(Nc1nc2ccccc2s1)(c1ccccc1)c1ccccc1,inactive: -1.6%
14,O=P(Nc1nccs1)(c1ccccc1)c1ccccc1,inactive: -0.64%
15,CC(C)C(=O)NC(Sc1ccccc1)C(Cl)(Cl)Cl (stereo not given),inactive: 0.93%
16,c1nnnn1CCn1cnnn1,inactive: -3.51%
17,C[C@@H]1C=CCP(=O)(Oc2ccccc2)O1 (stereo not given in full),inactive: 3.81%
18,C[C@H]1OP(=O)(Oc2ccccc2)C[C@@H]2O[C@@H]21 (stereo not given in full),inactive: -1.18%
19,Cc1ccccc1CN(C)C(=O)COC(=O)C(O)(c1ccccc1)c1ccccc1,inactive: 0.75%
20,COC(=O)C1(C)COP(=O)(NCc2ccccc2)OC1 (stereo not given),inactive: 1.19%
21,N#C/C(=C\c1ccc(N(CCBr)CCBr)cc1)C(N)=O,inactive: -8.98%
22,CC(=O)c1ccc(N2CC2c2ccncc2)cc1 (stereo not given),inactive: -0.38%

row,Structure (SMILES),inhibition
1,CC(=O)Nc1ccc(Oc2c([N+](=O)[O-])cc([N+](=O)[O-])cc2[N+](=O)[O-])cc1,inactive: -1.22%
2,CC(=O)Nc1ccc([As](=O)(O)O)c(O)c1,inactive: -2.34%
3,CCOc1ccc(C2=NCC(CBr)S2)cc1 (stereo not given),inactive: 1.26%
4,O=P1(Nc2nc3ccc(Cl)cc3s2)COc2ccccc2O1 (stereo not given),inactive: -0.75%
5,CC(C)(C)C(=O)NC(Sc1ccccc1)C(Cl)(Cl)Cl (stereo not given),inactive: 0.69%
6,CCc1cc(O)c([N+](=O)[O-])c(C)c1[N+](=O)[O-],inactive: 0.07%
7,CCC(=O)N1C2C3N(C(=O)CC)C1C1N(C(=O)CC)C(C(N1C(=O)CC)N3C(=O)CC)N2C(=O)CC,inactive: -1.63%
8,O=C(OC1CN2CCC1CC2)c1ccccc1 (stereo not given),inactive: 2.06%
9,Cc1ccc(OP(=O)(Nc2ccccn2)Oc2ccc(C)cc2)cc1,inactive: -0.66%
10,CC(=O)NC(SC(=S)N(CC(C)C)CC(C)C)C(Cl)(Cl)Cl (stereo not given),inactive: 0.53%
11,COC(=O)c1cc2c(s1)N=C(c1ccccc1)N(C)P2(=O)N1CCOCC1 (stereo not given),inactive: -2.89%
12,CN(C)C(=O)Oc1noc2ccccc12,inactive: -1.56%
13,O=c1c2cc([N+](=O)[O-])ccc2[nH]c2c([N+](=O)[O-])cc([N+](=O)[O-])cc12,inactive: -1.78%
14,Cc1ccccc1OP(=O)(Nc1ccccn1)Oc1ccccc1C,inactive: 0.95%
15,CC(NC(=O)COC(=O)C(O)(c1ccccc1)c1ccccc1)c1ccccc1 (stereo not given),inactive: 1.22%
16,Cc1ccc(NP(=O)(Oc2cccc(C)c2)Oc2cccc(C)c2)nc1,inactive: 3.49%
17,c1ccc(-c2nn[nH]n2)c(-c2nn[nH]n2)c1,inactive: -1.86%
18,O=C(NC1CCS(=O)(=O)C1)NP(=S)(Oc1ccccc1)Oc1ccccc1 (stereo not given),inactive: 7.59%
19,CCNC(=S)/N=C(\N)N[N+](=O)[O-],inactive: -3.63%
20,O=P1(N(CCCl)CCCl)OCCC2CCCCN21 (stereo not given),inactive: 0.96%
21,Nc1cccc2ccc([As](=O)(O)O)cc12,inactive: 2.71%
22,CCN(N=Nc1nonc1N)c1nonc1N,inactive: -2.65%

row,Structure (SMILES),inhibition
1,CN(C(=O)Cc1ccccc1)C1CC[C@@]2(CCCO2)C[C@@H]1N1CCCC1 (stereo not given in full),inactive: -3.27%
2,CN(C)P(=O)(N(C)C)n1c(Nc2ccccc2)nnc1-c1ccccc1,inactive: -2.56%
3,O=P(Nc1nc2ccc(Cl)cc2s1)(c1ccccc1)c1ccccc1,inactive: -1.86%
4,CCCC1OP(N)(=O)OCC1CC (stereo not given),inactive: 0.77%
5,O=C(O)c1ccccc1[As](=O)(O)O,inactive: 0.55%
6,CC(=O)Nc1ccc([As](=O)(O)O)cc1,inactive: 4.32%
7,CCn1c(=O)n(C2CCN(CC3CCCCCCC3)C[C@H]2CO)c2ccccc21 (stereo not given in full),inactive: 4.63%
8,CN(C(=O)Cc1ccc(Cl)c(Cl)c1)[C@H]1CCCC[C@@H]1N1CCCC1,inactive: -0.21%
9,Cc1ccc(NP(=O)(Oc2ccccc2F)Oc2ccccc2F)nc1,inactive: -1.24%
10,CCOP(=O)(Nc1ccccc1)OCC,inactive: -0.57%
11,Cc1cc(SC(NC(=O)c2ccc(F)cc2)C(Cl)(Cl)Cl)ncn1 (stereo not given),inactive: -4.2%
12,O=C(NC(Sc1ccncn1)C(Cl)(Cl)Cl)c1ccccc1 (stereo not given),inactive: 2.58%
13,Oc1ccccc1CNc1ccccn1,inactive: 0.53%
14,CC(C)CC(=O)NC(Sc1ccc(Cl)cc1)C(Cl)(Cl)Cl (stereo not given),inactive: -0.31%
15,Nc1cc(N)c2nonc2c1[N+](=O)[O-],inactive: -7.84%
16,Cc1ccc(N/C(=N/P(=O)(N2CCOCC2)N2CCOCC2)N2CCOCC2)cc1,inactive: -0.8%
17,CN(C(=O)Cc1ccc(Cl)c(Cl)c1)[C@H]1CCCC[C@H]1N1CCCC1,inactive: -0.75%
18,NC(=O)c1cc([N+](=O)[O-])cc([N+](=O)[O-])c1N,inactive: -3.48%
19,Clc1ccc(Cl)c(NC2=NCC(CBr)S2)c1 (stereo not given),inactive: 2.28%
20,CN1CCCC(OC(=O)C(c2ccccc2)c2ccccc2)C1 (stereo not given),inactive: -0.16%
21,Cc1ccc(OP(=O)(Nc2nccs2)Oc2ccc(C)cc2)cc1,inactive: 6.75%

# — PubChem BioAssay AID687016 (The Scripps Research Institute Molecular Screening Center, 2013)
